Data taken from ChEMBL document CHEMBL1129498, “Azole endothelin antagonists. 2. Structure-activity studies” (J Med Chem, 1996).

Sequences of proteins named here, by UniProt entry; tags and fusion partners are left off.
UniProt P26684, whole entry: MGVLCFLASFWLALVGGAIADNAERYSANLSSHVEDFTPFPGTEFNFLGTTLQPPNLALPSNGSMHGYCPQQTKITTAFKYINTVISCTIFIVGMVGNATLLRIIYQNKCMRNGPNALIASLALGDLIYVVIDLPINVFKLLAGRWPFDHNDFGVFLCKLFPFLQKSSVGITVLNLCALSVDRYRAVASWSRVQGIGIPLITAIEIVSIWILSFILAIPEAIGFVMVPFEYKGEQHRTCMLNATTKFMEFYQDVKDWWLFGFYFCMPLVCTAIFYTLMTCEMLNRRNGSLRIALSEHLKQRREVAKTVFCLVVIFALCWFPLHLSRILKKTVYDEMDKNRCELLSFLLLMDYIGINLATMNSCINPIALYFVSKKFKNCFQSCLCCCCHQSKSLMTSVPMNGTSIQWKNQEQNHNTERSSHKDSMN

Biological target: Endothelin-1 receptor (Rattus norvegicus, UniProt P26684)
Test: Inhibitory activity was evaluated against ET- A Binding to Endothelin A receptor in MMQ cell homogenates
Format: cell-free

| IC50 | Structure (SMILES) |
| --- | --- |
| 23.3 µM | Cc1c(C(=O)O)nc([C@@H](Cc2c[nH]c3ccccc23)NC(=O)[C@H](CC(C)C)NC(=O)N2CCCCCC2)n1C |
| 16.2 µM | Cc1c(C(=O)O)nc([C@@H](Cc2c[nH]c3ccccc23)NC(=O)[C@H](CC(C)C)NC(=O)N2CCCCCC2)n1Cc1ccccc1 |
| 0.28 µM | Cc1[nH]c([C@@H](Cc2cn(C)c3ccccc23)NC(=O)[C@H](CC(C)C)NC(=O)N2CCCCCC2)nc1C(=O)O |
